Like-named read-outs stand apart in the source and are kept apart here.
Test system: ICR-JCL male mice
Conditions: 10 mg./kg. i.v., 10 days; for Total, mice with degree of fibrosis ++ / Total, mice with degree of fibrosis - / Total, mice with degree of fibrosis ± / Total, mice with degree of fibrosis ± (third Total column): 10 mice

## benzylamino-bleomycin
Lung L
  Total, mice with degree of fibrosis ++: 0
  Total, mice with degree of fibrosis -: 8
  Total, mice with degree of fibrosis ±: 1
  Total, mice with degree of fibrosis ± (third Total column): 1
Lung R
  Total, mice with degree of fibrosis ++: 0
  Total, mice with degree of fibrosis -: 7
  Total, mice with degree of fibrosis ±: 3
  Total, mice with degree of fibrosis ± (third Total column): 0
Lung fibrosis in mice
  toxicity compared with bleomycin B2: lower
